This note sets out measurements from patent publication US8580794B2 (AbbVie Inc., priority 2009, dated 2013).

Sequences of proteins named here, by UniProt entry; tags and fusion partners are left off.
UniProt P10415, whole entry: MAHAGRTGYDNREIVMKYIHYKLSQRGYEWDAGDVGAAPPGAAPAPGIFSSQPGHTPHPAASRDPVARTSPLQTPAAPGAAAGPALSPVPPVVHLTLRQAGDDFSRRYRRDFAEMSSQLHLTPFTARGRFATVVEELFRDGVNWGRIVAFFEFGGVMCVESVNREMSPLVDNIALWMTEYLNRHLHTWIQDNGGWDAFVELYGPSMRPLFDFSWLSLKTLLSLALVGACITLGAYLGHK

The Ki is a dissociation constant, usually derived from enzyme kinetics or from competition with a known ligand.

The first assay has as its target GST-Bc1-2 (Homo sapiens, UniProt P10415). Put plainly: Time Resolved-Fluorescence Resonance Energy Transfer (TR-FRET) Bcl-2 binding assay with F-Bak peptide probe. Conditions: GST-Bcl-2 1 nM, F-Bak probe 100 nM, Tb-anti-GST 1 nM; '<' = below limit of detection; read-out: TR-FRET Bcl-2 Binding Ki. In general terms: Time-resolved FRET reads energy transfer from a long-lived donor to a nearby acceptor.
`CN1CCN(Nc2ccc(S(=O)(=O)NC(=O)c3ccc(N4CCN(CC5=C(c6ccc(Cl)cc6)CC(C)(C)CC5)CC4)cc3Oc3cnc4[nH]ccc4c3)cc2[N+](=O)[O-])CC1` [Example 6, 4-(4-{[2-(4-chlorophenyl)-4,4-dimethylcyclohex-1-en-1-yl]methyl}piperazin-1-yl)-N-({4-[(4-methylpiperazin-1-yl)amino]-3-nitrophenyl}sulfonyl)-2-(1H-pyrrolo[2,3-b]pyridin-5-yloxy)benzamide]: the inhibition constant Ki was 0.018 nM.
On to `CO[C@H]1CC[C@H](COc2ncc(S(=O)(=O)NC(=O)c3ccc(N4CCN(CC5=C(c6ccc(Cl)cc6)CC(C)(C)CC5)CC4)cc3Oc3cnc4[nH]ccc4c3)cc2C(F)(F)F)CC1` [Example 300, 4-(4-{[2-(4-chlorophenyl)-4,4-dimethylcyclohex-1-en-1-yl]methyl}piperazin-1-yl)-N-({6-[(trans-4-methoxycyclohexyl)methoxy]-5-(trifluoromethyl)pyridin-3-yl}sulfonyl)-2-(1H-pyrrolo[2,3-b]pyridin-5-yloxy)benzamide], for which the inhibition constant Ki came out at 1.63 nM.
With `CC1(C)CCC(CN2CCN(c3ccc(C(=O)NS(=O)(=O)c4ccc(N[C@H]5CC[C@H](NS(C)(=O)=O)CC5)c([N+](=O)[O-])c4)c(Oc4cnc5[nH]ccc5c4)c3)CC2)=C(c2ccc(Cl)cc2)C1` [Example 189, Trans-4-(4-{[2-(4-chlorophenyl)-4,4-dimethylcyclohex-1-en-1-yl]methyl}piperazin-1-yl)-N-{[4-({4-[(methylsulfonyl)amino]cyclohexyl}amino)-3-nitrophenyl]sulfonyl}-2-(1H-pyrrolo[2,3-b]pyridin-5-yloxy)benzamide], the inhibition constant (Ki) came out at 0.018 nM.
Still for that read-out and setting: as for `CC1(C)CCC(CN2CCN(c3ccc(C(=O)NS(=O)(=O)c4cnc(OC[C@@H]5CN(C6CC6)CCO5)c(Cl)c4)c(Oc4cnc5[nH]ccc5c4)c3)CC2)=C(c2ccc(Cl)cc2)C1` [Example 314, N-[(5-chloro-6-{[(2S)-4-cyclopropylmorpholin-2-yl]methoxy}pyridin-3-yl)sulfonyl]-4-(4-{[2-(4-chlorophenyl)-4,4-dimethylcyclohex-1-en-1-yl]methyl}piperazin-1-yl)-2-(1H-pyrrolo[2,3-b]pyridin-5-yloxy)benzamide], the figure is 0.042 nM; as for `O=C(NS(=O)(=O)c1cnc(OCC2CCOCC2)c(Cl)c1)c1ccc(N2CCN(CC3=C(c4ccc(Cl)cc4)CCC4(CCN(C(CF)CF)CC4)C3)CC2)cc1Oc1cnc2[nH]ccc2c1` [Example 267, 4-(4-{[9-(4-chlorophenyl)-3-(1,3-difluoropropan-2-yl)-3-azaspiro[5.5]undec-8-en-8-yl]methyl}piperazin-1-yl)-N-{[5-chloro-6-(tetrahydro-2H-pyran-4-ylmethoxy)pyridin-3-yl]sulfonyl}-2-(1H-pyrrolo[2,3-b]pyridin-5-yloxy)benzamide], 0.035 nM.
`CO[C@H]1CC[C@H](CNc2ccc(S(=O)(=O)NC(=O)c3ccc(N4CCN(CC5=C(c6ccc(Cl)cc6)CCC6(CCCC6)C5)CC4)cc3Oc3cnc4[nH]ccc4c3)cc2[N+](=O)[O-])CC1` [Example 74, Trans-4-(4-{[8-(4-chlorophenyl)spiro[4.5]dec-7-en-7-yl]methyl}piperazin-1-yl)-N-[(4-{[(4-methoxycyclohexyl)methyl]amino}-3-nitrophenyl)sulfonyl]-2-(1H-pyrrolo[2,3-b]pyridin-5-yloxy)benzamide]: the Ki came to 0.029 nM.
Regarding `CC1(C)CCCC(c2ccc(Cl)cc2)=C1CN1CCN(c2ccc(C(=O)NS(=O)(=O)c3ccc(NCC4CCOCC4)c([N+](=O)[O-])c3)c(Oc3cnc4[nH]ccc4c3)c2)CC1` [Example 101, 4-(4-{[2-(4-chlorophenyl)-6,6-dimethylcyclohex-1-en-1-yl]methyl}piperazin-1-yl)-N-({3-nitro-4-[(tetrahydro-2H-pyran-4-ylmethyl)amino]phenyl}sulfonyl)-2-(1H-pyrrolo[2,3-b]pyridin-5-yloxy)benzamide], the Ki was 0.021 nM.
As to `CC1(C)CCC(CN2CCN(c3ccc(C(=O)NS(=O)(=O)c4cnc(N[C@@H]5CCN(C(CF)CF)C5)c(Cl)c4)c(Oc4cnc5[nH]ccc5c4)c3)CC2)=C(c2ccc(Cl)cc2)C1` [Example 231, N-[(5-chloro-6-{[(3R)-1-(1,3-difluoropropan-2-yl)pyrrolidin-3-yl]amino}pyridin-3-yl)sulfonyl]-4-(4-{[2-(4-chlorophenyl)-4,4-dimethylcyclohex-1-en-1-yl]methyl}piperazin-1-yl)-2-(1H-pyrrolo[2,3-b]pyridin-5-yloxy)benzamide], the Ki was 0.77 nM.
For the compound `CO[C@H]1CC[C@@H](COc2ncc(S(=O)(=O)NC(=O)c3ccc(N4CCN(CC5=C(c6ccc(Cl)cc6)CC(C)(C)CC5)CC4)cc3Oc3cnc4[nH]ccc4c3)cc2C(F)(F)F)CC1` [Example 301, 4-(4-{[2-(4-chlorophenyl)-4,4-dimethylcyclohex-1-en-1-yl]methyl}piperazin-1-yl)-N-({6-[(cis-4-methoxycyclohexyl)methoxy]-5-(trifluoromethyl)pyridin-3-yl}sulfonyl)-2-(1H-pyrrolo[2,3-b]pyridin-5-yloxy)benzamide], the Ki is 2.06 nM.

The assay is the same for the next values; noted with them: Table 5, direct comparison Z=N vs Z=C analogs; read-out: Bcl-2 FRET ki.
As to `CN1CCN(Nc2ccc(S(=O)(=O)NC(=O)c3ccc(N4CCN(CC5=C(c6ccc(Cl)cc6)CC(C)(C)CC5)CC4)cc3Oc3cnc4[nH]ccc4c3)cc2[N+](=O)[O-])CC1` [Example 6, 4-(4-{[2-(4-chlorophenyl)-4,4-dimethylcyclohex-1-en-1-yl]methyl}piperazin-1-yl)-N-({4-[(4-methylpiperazin-1-yl)amino]-3-nitrophenyl}sulfonyl)-2-(1H-pyrrolo[2,3-b]pyridin-5-yloxy)benzamide], the inhibitory constant (Ki) was 0.018 nM.
